# Test: Effect of nitrogenous stabilizer on chlorite consumption in composition with FD&C Yellow #5 (Examples 3, 4, 8)
# Conditions: composition with FD&C Yellow #5, pH 2.5, versus control
compound,measurement,value
OCCN(CCO)CCO,effect on rate of sodium chlorite consumption / chlorite longevity (in words),accelerate the rate of sodium chlorite consumption

# From patent US8388990B2, “Acidified chlorite compositions containing nitrogenous stabilizers and systems and methods related thereto” (Ecolab USA Inc., priority 2002, dated 2013)
